Measured values from ChEMBL document CHEMBL1134074, “Identification of novel potent hydroxamic acid inhibitors of peptidyl deformylase and the importance of the hydroxamic acid functionality on inhibition” (Bioorg Med Chem Lett, 2001).

Target: T1, Peptide deformylase (Staphylococcus aureus subsp. aureus Mu50, UniProt P68825)
T1 sequence (P68825 whole entry): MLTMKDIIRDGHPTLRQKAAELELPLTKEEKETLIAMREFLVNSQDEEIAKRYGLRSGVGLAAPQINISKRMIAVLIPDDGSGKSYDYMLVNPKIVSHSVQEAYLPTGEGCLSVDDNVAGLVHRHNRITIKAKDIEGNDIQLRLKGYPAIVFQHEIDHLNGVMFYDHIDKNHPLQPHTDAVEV
Assay: Inhibition of Peptidyl deformylase (PDF)

O=C(NO)C(NCc1cccc(C(F)(F)F)c1)c1cccc2ccccc12 (stereo unspecified)
IC50: 46 nM
